{"source": "paper PMC7309225", "about": "“Synthesis, Biodistribution, and Radiation Dosimetry of a Novel mGluR5 Radioligand: ^18F-AZD9272” (ACS Chemical Neuroscience, 2020)", "origin": "cited, not measured here", "conditions": "in vivo; cited from earlier work"}
{"substance": "^18F-FDG", "values": [{"measurement": "Estimated radiation dose", "result": "0.015–0.029 mSv/MBq"}]}
